This is a selection; strong and weak results do not stand in their true shares. Records with an inconclusive call do not appear. The source made the active and inactive calls. Cut-off read from the data, not from the text of the source: active = CPE inhibition above about 20% (passing the limit was not always enough); inconclusive = no clear call, values can overlap the other calls; tested in BHK-21 cells.

This assay in a line: inhibitors of DENV2 cytopathic effect, primary screen, cell-based, plate reader, single concentration (AID 651640).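 Note: 0% = median of neutral control wells and 100% = median of positive control wells.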 The settings on record: DENV2-infected cells, cytopathic effect rescue, at 9.99 µM, active compounds read high. On the technique in general: Protection from cytopathic effect is a common read-out in antiviral testing.
Take `COc1cc(I)ccc1[As](=O)(O)O`: the CPE inhibition is inactive: 12%.

Take `Cc1c2c(nc3ccccc13)SC(C(Cl)Cl)C2` (stereo not given): the CPE inhibition was inactive: -5.27%.

Consider `O=C(NC(Sc1ccncn1)C(Cl)(Cl)Cl)c1ccccc1` (stereo not given), for which the CPE inhibition was inactive: 4.91%.

Consider `Nc1cc(N)c2nonc2c1[N+](=O)[O-]`, for which the CPE inhibition was inactive: 11.3%.

For the molecule `Clc1ccc(Cl)c(NC2=NCC(CBr)S2)c1` (stereo not given), the CPE inhibition was inactive: 10.4%.

With `Cc1ccc(OP(=O)(Nc2nccs2)Oc2ccc(C)cc2)cc1`, the CPE inhibition was inactive: 1.41%.

With `CN(C(=O)Cc1ccc(Cl)c(Cl)c1)[C@H]1CCCC[C@H]1N1CCCC1`, the CPE inhibition is inactive: 1.16%.

Turning to `Cc1ccc(N/C(=N/P(=O)(N2CCOCC2)N2CCOCC2)N2CCOCC2)cc1`, the CPE inhibition is inactive: 2.52%.

Regarding `NC(=O)c1cc([N+](=O)[O-])cc([N+](=O)[O-])c1N`, the CPE inhibition was inactive: 0.89%.

Take `Nc1cccc2ccc([As](=O)(O)O)cc12`: the CPE inhibition was inactive: -3.9%.

Turning to `CN(C(=O)Cc1ccccc1)C1CC[C@@]2(CCCO2)C[C@@H]1N1CCCC1` (stereo not given in full), the CPE inhibition was inactive: 2.3%.

With `CN(C(=O)Cc1ccc(Cl)c(Cl)c1)[C@H]1CCCC[C@@H]1N1CCCC1`, the CPE inhibition is inactive: 4.21%.

Regarding `Cc1ccc(NP(=O)(Oc2ccccc2F)Oc2ccccc2F)nc1`, the CPE inhibition was inactive: -2.51%.

Take `O=P(Nc1nc2ccc(Cl)cc2s1)(c1ccccc1)c1ccccc1`: the CPE inhibition was inactive: -1.73%.

For the molecule `CN(C)P(=O)(N(C)C)n1c(Nc2ccccc2)nnc1-c1ccccc1`, the CPE inhibition was inactive: -2.36%.

For the molecule `CC(=O)Nc1ccc([As](=O)(O)O)cc1`, the CPE inhibition is inactive: 1.68%.

Turning to `O=C(O)c1ccccc1[As](=O)(O)O`, the CPE inhibition is inactive: -8.81%.

As to `CCCC1OP(N)(=O)OCC1CC` (stereo not given), the CPE inhibition was inactive: -2.54%.

`O=C(O)CNc1ccc([As](=O)(O)O)cc1`: the CPE inhibition was inactive: -3.53%.

With `COC(=O)C1(C)COP(=O)(Nc2ccccc2)OC1` (stereo not given), the CPE inhibition is inactive: 3.25%.

With `O=[N+]([O-])c1cccc(NC2=NCC(CBr)S2)c1` (stereo not given), the CPE inhibition is inactive: -1.99%.

For the molecule `O=[N+]([O-])c1ncn(CCn2ncnc2[N+](=O)[O-])n1`, the CPE inhibition was inactive: 9.14%.

In the case of `CC(C)(C)C(=O)NC(Sc1ccncn1)C(Cl)(Cl)Cl` (stereo not given), the CPE inhibition is inactive: -2%.

Consider `O=C(Nc1cc([As](=O)(O)O)ccc1O)c1ccccc1`, for which the CPE inhibition is inactive: 5.18%.

In the case of `O=P1(N(CCCl)CCCl)OCCCS1` (stereo not given), the CPE inhibition is inactive: 15.7%.

For `c1cc(-c2nn[nH]n2)ccc1-c1nn[nH]n1`, the CPE inhibition was inactive: 6.59%.

As for `CC(C)c1nc(Nc2ccccc2)n(P(=O)(N(C)C)N(C)C)n1`, the CPE inhibition is inactive: -1.53%.

Regarding `CC(C)=N/N=C(\N)N[N+](=O)[O-]`, the CPE inhibition was inactive: -0.299%.

In the case of `CCN(/C(=N/P(=O)(N1CCOCC1)N1CCOCC1)N1CCOCC1)c1ccc(OC)cc1`, the CPE inhibition is inactive: -7.98%.

For the molecule `Nc1ccc([As](=O)(O)c2ccc(N)cc2)cc1`, the CPE inhibition was inactive: -2.16%.

As to `C[N+]1=C2C=CC=CC=C2SC12C([N+](=O)[O-])=CC([N+](=O)[O-])=C[C-]2[N+](=O)[O-]` (stereo not given), the CPE inhibition was inactive: 3.18%.

`Cc1ccc(NP(=O)(Oc2ccccc2)Oc2ccccc2)nc1`: the CPE inhibition is inactive: -4.59%.

Regarding `O=[N+]([O-])c1cc([N+](=O)[O-])c(CCNc2ccccc2)c([N+](=O)[O-])c1`, the CPE inhibition was inactive: -6.31%.

As to `COc1ccc(C2=NCC(CBr)S2)cc1` (stereo not given), the CPE inhibition was inactive: -2.15%.

For the molecule `C/C(N)=N\P(=O)(OCc1ccccc1)OCc1ccccc1`, the CPE inhibition is inactive: 0.268%.

Take `C(Cc1nn[nH]n1)Cc1nn[nH]n1`: the CPE inhibition was inactive: 17.5%.

`Nc1ccc([As](=O)(O)c2ccc([N+](=O)[O-])cc2)cc1`: the CPE inhibition was inactive: -1.57%.

With `O=[As](O)(c1ccccc1)c1ccc(O)cc1`, the CPE inhibition was inactive: 2.53%.

Turning to `O=[N+]([O-])c1ncn(CCn2cnc([N+](=O)[O-])n2)n1`, the CPE inhibition is inactive: 1.3%.

With `CC(=O)NC(SC(=S)N(C)C)C(Cl)(Cl)Cl` (stereo not given), the CPE inhibition is inactive: -10.2%.

Turning to `O=P(Nc1nc2ccccc2s1)(c1ccccc1)c1ccccc1`, the CPE inhibition is inactive: 6.34%.

Turning to `C[C@H]1OP(=O)(Oc2ccccc2)[C@H](O)[C@H](O)[C@H]1N=[N+]=[N-]` (stereo not given in full), the CPE inhibition is inactive: 19.7%.

As for `CN(C)C1(CNC(=O)c2ccc(Cl)c(S(N)(=O)=O)c2)CCCCC1`, the CPE inhibition was inactive: 2.62%.

Take `O=P(Nc1ccccn1)(c1ccc(Br)cc1)c1ccc(Br)cc1`: the CPE inhibition was inactive: 1.93%.

As to `COc1ccc(N)c([N+](=O)[O-])c1[N+](=O)[O-]`, the CPE inhibition was inactive: -2.94%.

Consider `Nc1ccc(CCCCOc2ccccc2)cc1`, for which the CPE inhibition is inactive: 4.21%.

On to `CC(NC(=O)COC(=O)C(O)(c1ccccc1)c1ccccc1)c1ccccc1` (stereo not given), for which the CPE inhibition is inactive: -2.52%.

Consider `Cc1ccccc1OP(=O)(Nc1ccccn1)Oc1ccccc1C`, for which the CPE inhibition is inactive: 19.5%.

With `O=c1c2cc([N+](=O)[O-])ccc2[nH]c2c([N+](=O)[O-])cc([N+](=O)[O-])cc12`, the CPE inhibition is inactive: 4.91%.

`CN(C)C(=O)Oc1noc2ccccc12`: the CPE inhibition is inactive: 2%.

Consider `O=P1(N(CCCl)CCCl)OCCC2CCCCN21` (stereo not given), for which the CPE inhibition is inactive: -3.83%.

As to `c1ccc(-c2nn[nH]n2)c(-c2nn[nH]n2)c1`, the CPE inhibition is inactive: -9.04%.

As to `Cc1ccc(NP(=O)(Oc2cccc(C)c2)Oc2cccc(C)c2)nc1`, the CPE inhibition was inactive: -3.87%.

Take `O=C(NC1CCS(=O)(=O)C1)NP(=S)(Oc1ccccc1)Oc1ccccc1` (stereo not given): the CPE inhibition was inactive: 4.22%.

Take `CCNC(=S)/N=C(\N)N[N+](=O)[O-]`: the CPE inhibition is inactive: 17.5%.

For the molecule `CC(=O)Nc1ccc([As](=O)(O)O)c(O)c1`, the CPE inhibition was inactive: 0.769%.

On to `CC(=O)Nc1ccc(Oc2c([N+](=O)[O-])cc([N+](=O)[O-])cc2[N+](=O)[O-])cc1`, for which the CPE inhibition is inactive: 3.89%.

For `Cc1ccccc1CN(C)C(=O)COC(=O)C(O)(c1ccccc1)c1ccccc1`, the CPE inhibition was inactive: -17.8%.

On to `C[C@H]1OP(=O)(Oc2ccccc2)C[C@@H]2O[C@@H]21` (stereo not given in full), for which the CPE inhibition is inactive: 2.27%.

As to `C[C@@H]1C=CCP(=O)(Oc2ccccc2)O1` (stereo not given in full), the CPE inhibition is inactive: -0.813%.

In the case of `CC(=O)c1ccc(N2CC2c2ccncc2)cc1` (stereo not given), the CPE inhibition was inactive: -4.22%.

Take `N#C/C(=C\c1ccc(N(CCBr)CCBr)cc1)C(N)=O`: the CPE inhibition was inactive: -4.24%.

As for `COC(=O)C1(C)COP(=O)(NCc2ccccc2)OC1` (stereo not given), the CPE inhibition was inactive: -2.95%.

Regarding `CC(C)(C)C(=O)NC(Sc1ccccc1)C(Cl)(Cl)Cl` (stereo not given), the CPE inhibition was inactive: -3.21%.

In the case of `CCOc1ccc(C2=NCC(CBr)S2)cc1` (stereo not given), the CPE inhibition is inactive: -7.14%.
